# Compounds with a hit are over-represented: about 2.1% of the library has one in this group of screens.
# PTAP TSG101 blk: blocks PTAP/TSG101 interaction to inhibit HIV-1 budding. Q99816. Fluorescence polarization, FITC-PTAP peptide / Tsg101 binding. Potency, µM (titrated, usually from 115 µM), for inactives: at the top dose activity change, negative = inhibition, hits mostly inhibitors. 340,000 tested, under 10 active. AID 493005; active = well fitted inhibition curve with a large enough effect in the main read-out, with a control signal flat, not every such curve was filed as active; inconclusive = small, poorly fitted or top-dose-only effect, or effect the other way, or a change in a side signal; inactive = no such curve, though single readings can be large or run the other way; note: potency is the fitted concentration of half-maximal effect; % of control where 0% means no effect
#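 Tsg101 binding domain (10 uM final) was mixed with compound and a FITC-labeled PTAP peptide (50 nM final) in HEPES pH 7.5 buffer with NaCl, Tween 20, EDTA and TCEP; fluorescence polarization was read after 20 min at r.t.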
# miR-21 reporter: miR-21 reporter, rising signal; Potency, µM (top dose mostly 38.3 µM), for the others: at the highest dose reporter change, positive = more light; 340,000 tested, under 10 active; HeLa miR-21 FLuc reporter, luciferase, 48 h; active = well fitted rising curve with a large enough effect; inconclusive = small, poorly fitted or top-dose-only effect; inactive = no such curve, though single readings can be large or run the other way;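 note: % of control where 0% means no effect; miR-21 action dims this reporter so a rising signal means less miR-21 action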
#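 Compounds were titrated across several concentrations (up to approximately 40 uM) and incubated 48 hours with HeLa miR-21-FLuc reporter cells (miR-21 target sequence downstream of FLuc, endogenous miR-21). Readout was firefly luciferase luminescence after lytic detection reagent.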
# Nrf2 ARE act: activators of Nrf2 (ARE) signaling | Potency, µM (titrated, usually from 46.1 µM), for the others: at the highest dose activation, most hits filed as activators | AID 624171 | 410,000 tested, 0.31% active | AREc32 ARE-luciferase reporter (MCF7-derived line), luminescence, 24 h; note: potency is the fitted concentration of half-maximal effect; % of control where 0% means no effect; nearly all actives have a fitted effect of over 65% in size
#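 For detection, Steady-Glo was added and plates sat 30 min at RT; before that, AREc32_Fluc cells grown overnight in OPTI-MEM/5% FBS had been treated with 23 nL compound for 24 hr at 37 deg C.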
# Glioma ERSR ind: ER stress response induction in glioma | Potency, µM, without a hit: top-dose activation, most hits filed as activators | U87-MG GRP78 promoter luciferase reporter, 16 h | 420,000 tested, 0.02% active; note: potency is the fitted concentration of half-maximal effect; series mostly up to about 76 µM; % of control where 0% means no effect; nearly all actives have a fitted effect of over 35% in size
#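 ERSR induction read as luciferase luminescence (Bright-Glo, 10 min at room temperature) in stably transfected human U87-MG glioma cells exposed to compounds for 16 h, using GRP78 as sensor.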
# A549 tox-1: kills or reduces viability of A549 cells in Nrf2 counter-screen; A549 ARE-Fluc cells, CellTiter-Fluor viability, 18-24 h; Potency, µM (series often up to 46 µM), inactives show at the top dose activity change, negative = cytotoxicity, usual class: inhibitors; 390,000 tested, 0.16% active; AID 504648; note: potency is the fitted concentration of half-maximal effect; % is set by controls: 0 for no effect and ±100 for the full control effect
#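 A549 ARE-Fluc cells in 5% FBS OPTI-MEM, 5000 cells/well, rested 2 h then exposed to compounds in concentration-response for 18-24 h at 37 °C. Viability by CellTiter-Fluor fluorescence (Ex 405/Em 525) after 30 min; luciferase luminescence (BugLite, 15 min, RT) read afterwards.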
# Nrf2 inh: inhibitors of Nrf2 signaling | A549 ARE-Fluc reporter, luciferase luminescence, 18-24 h | 360,000 tested, 2.1% active | Potency, µM (series often up to 46 µM), inactives show top-dose activity change, negative = inhibition, usual class: inhibitors; note: potency is the fitted concentration of half-maximal effect; % is set by controls: 0 for no effect and ±100 for the full control effect; nearly all actives have a fitted effect of over 60% in size
#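 Quantitative HTS in A549 cells stably bearing an antioxidant response element-firefly luciferase construct. Inhibition of Nrf2-driven transcription was scored by luminescence after 18-24 h of compound exposure at 37 °C.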
# FLuc enzyme inh: firefly luciferase inhibition, Nrf2 hit validation. shares compounds with Nrf2 inh. purified firefly luciferase, luminescence inhibition. Potency, µM (titrated, usually from 57.5 µM), inactives show at the highest dose activity change, negative = inhibition, most hits filed as inhibitors. 1,400 tested, 4% active; note: potency is the fitted concentration of half-maximal effect; % is set by controls: 0 for no effect and ±100 for the full control effect; nearly all actives have a fitted effect of over 65% in size
# A549 tox-2: A549 cytotoxicity, Nrf2 inhibitor counterscreen | A549 ARE-Fluc cells, cytotoxicity counterscreen | 1,400 tested, 2% active | shares compounds with Nrf2 inh | Potency, µM (doses to about 46.1 µM), for the others: top-dose activity change, negative = cytotoxicity, actives largely listed as inhibitors | AID 720523;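 note: potency is the fitted concentration of half-maximal effect; cells exposed to compounds for 18 to 24 hours; % is set by controls: 0 for no effect and ±100 for the full control effect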
# Nrf2 ARE inh: reduces Nrf2 ARE reporter signal in A549 cells; shares compounds with Nrf2 inh; 1,400 tested, 74% active; A549 ARE-firefly luciferase reporter, luminescence; Potency, µM (doses to about 46.1 µM), for inactives: at the top dose activity change, negative = inhibition, actives largely listed as inhibitors; AID 720524; note: potency is the fitted concentration of half-maximal effect; % is set by controls: 0 for no effect and ±100 for the full control effect; nearly all actives have a fitted effect of over 65% in size
# Numbers without * were called inactive; ? = inconclusive; · = no result given; [ ] = dose if it differs, or a comment. Unless noted, calls come from the whole dose curve; as a rule, active = well fitted curve in the direction sought with a large enough effect; inconclusive = small, poorly fitted or top-dose-only effect, or another doubt; inactive = no such curve, though single readings can be large; an effect the other way counts as inactive or inconclusive.
# Short forms: A = PTAP TSG101 blk; B = miR-21 reporter; C = Nrf2 ARE act; D = Glioma ERSR ind; E = A549 tox-1; F = Nrf2 inh; G = FLuc enzyme inh; H = A549 tox-2; I = Nrf2 ARE inh
[1] CNc1ccc(/C=C2\C=Cc3ccccc32)cc1
  A: ·	B: ·	C: ·	D: 7%	E: ·	F: ·	G: ·	H: ·	I: ·
[2] Cc1ccccc1-n1ncc2c(SCC(=O)NC3CCCC3)ncnc21
  A: 0%	B: 11%	C: 0%	D: -3%	E: -20%	F: 8.2µM*	G: 0%	H: -4%	I: 15µM*
[3] CCN(CC)c1ccc(C(=C2C=CC(=[N+](CC)Cc3cccc(S(=O)(=O)[O-])c3)C=C2)c2ccc(N(CC)Cc3cccc(S(=O)(=O)O)c3)cc2)cc1
  A: ·	B: ·	C: ·	D: -2%	E: ·	F: ·	G: ·	H: ·	I: ·
[4] CCN(CC)c1ccc(C(=C2C=CC(=[N+](CC)CC)C=C2)c2ccccc2)cc1
  A: -2%	B: ·	C: -3%	D: -14%	E: 9.2µM*	F: 1.3µM*	G: 21µM*	H: 6.5µM*	I: 0.73µM*
[5] C/C=C1\COC(C(=O)NC)(C(F)(F)F)C=C1C=C1CCCCC1 (stereo not given)
  A: ·	B: ·	C: ·	D: -10%	E: -1%	F: 9%	G: ·	H: ·	I: ·
[6] COc1ccc(CN(CCCN)c2ccc(Br)cn2)cc1
  A: ·	B: ·	C: ·	D: ·	E: 2%	F: ?	G: ·	H: ·	I: ·
[7] O=C(CNC(=O)C(c1ccccc1)c1ccccc1)OCC(=O)c1cccc2ccccc12
  A: ·	B: ·	C: ·	D: 0%	E: 1%	F: 7%	G: ·	H: ·	I: ·
[8] CCc1ccc(NC(=O)c2ccc(Cn3nc(N4CCN(c5ccccc5)CC4)ccc3=O)o2)cc1
  A: ·	B: 15%	C: -1%	D: -1%	E: ?	F: 5.2µM*	G: ?	H: -14%	I: 6.5µM*
[9] CCc1ccccc1NC(=O)c1ccc(Cn2nc(N3CCN(c4ccccc4)CC3)ccc2=O)o1
  A: ·	B: 24%	C: -1%	D: -2%	E: -9%	F: ?	G: ·	H: ·	I: ·
[10] CN(CCCc1cnc[nH]1)C(=S)NCCCN(Cc1ccc(Cl)cc1)c1ccc(Br)cn1
  A: ·	B: ·	C: ·	D: -12%	E: -7%	F: -8%	G: ·	H: ·	I: ·
[11] Cc1cc2cc(CN(Cc3ccco3)S(=O)(=O)c3c(C)ccc4nsnc34)c(=O)[nH]c2cc1C
  A: -4%	B: -1%	C: 0%	D: -2%	E: -21%	F: 2.3µM*	G: ?	H: -30%	I: 3.3µM*
[12] COc1cc2[nH]c3c(N4CCN(c5ccccn5)CC4)ncnc3c2cc1OC
  A: -7%	B: 19%	C: 4%	D: -13%	E: -7%	F: ?	G: ·	H: ·	I: ·
[13] COc1ccc(N2CCN(c3ncnc4c3[nH]c3ccccc34)CC2)cc1
  A: -8%	B: 17%	C: 4%	D: -4%	E: -10%	F: 5.8µM*	G: 1%	H: 0%	I: 2.9µM*
[14] CC(=O)N[C@H]1CSSC[C@@H](C(=O)N2CCC[C@H]2C(=O)N2CCC[C@H]2C(=O)N[C@@H](CCCCN)C(=O)N[C@@H](CC(=O)O)C(N)=O)NC(=O)CNC(=O)[C@H](Cc2c[nH]c3ccccc23)NC(=O)[C@H](CCCNC(=N)N)NC(=O)[C@@H](Cc2ccc3ccccc3c2)NC(=O)[C@H](Cc2cnc[nH]2)NC(=O)[C@H](CCC(=O)O)NC1=O
  A: ·	B: ·	C: ·	D: -5%	E: ·	F: ·	G: ·	H: ·	I: ·
[15] COc1ccc(CNCc2ccccc2)cc1COc1ccc(NC(C)=O)cc1
  A: ·	B: ·	C: ·	D: ·	E: 0%	F: 3%	G: ·	H: ·	I: ·

# Next part; it opens with the 2 that closed the last part.
# Short forms: A = PTAP TSG101 blk; B = miR-21 reporter; C = Nrf2 ARE act; D = Glioma ERSR ind; E = A549 tox-1; F = Nrf2 inh; G = FLuc enzyme inh; H = A549 tox-2; I = Nrf2 ARE inh
[14] CC(=O)N[C@H]1CSSC[C@@H](C(=O)N2CCC[C@H]2C(=O)N2CCC[C@H]2C(=O)N[C@@H](CCCCN)C(=O)N[C@@H](CC(=O)O)C(N)=O)NC(=O)CNC(=O)[C@H](Cc2c[nH]c3ccccc23)NC(=O)[C@H](CCCNC(=N)N)NC(=O)[C@@H](Cc2ccc3ccccc3c2)NC(=O)[C@H](Cc2cnc[nH]2)NC(=O)[C@H](CCC(=O)O)NC1=O
  A: ·	B: ·	C: ·	D: -5%	E: ·	F: ·	G: ·	H: ·	I: ·
[15] COc1ccc(CNCc2ccccc2)cc1COc1ccc(NC(C)=O)cc1
  A: ·	B: ·	C: ·	D: ·	E: 0%	F: 3%	G: ·	H: ·	I: ·
[16] CCCc1ccc(-c2ccc(/C=C/C(=O)O)cc2)nc1
  A: -2%	B: ?	C: -3%	D: -12%	E: 0%	F: 0.037µM*	G: 0.27µM*	H: -4%	I: 0.058µM*
[17] N#Cc1c(NC(=O)CSc2ncn[nH]2)sc2c1CCCCC2
  A: ·	B: ?	C: -1%	D: -13%	E: -9%	F: 0.37µM*	G: 9.5µM*	H: 0%	I: 1.6µM*
[18] Cn1cnnc1SCC(=O)Nc1sc2c(c1C#N)CCCCC2
  A: 1%	B: -22%	C: 4%	D: -1%	E: -9%[1.84 µM]	F: ?	G: ·	H: ·	I: ·
[19] COc1cc2c(c(OC)c1OC)-c1c(cc(OC)c(OC)c1OC)CC(C)C(C)C2 (stereo not given)
  A: ·	B: ·	C: ·	D: -7%	E: ·	F: ·	G: ·	H: ·	I: ·
[20] CCCCCC[C@@H](CCC)C(=O)O
  A: ·	B: ·	C: ·	D: 1%	E: ·	F: ·	G: ·	H: ·	I: ·
[21] COc1ccc(CC(=O)Nc2cc(S(=O)(=O)N3CCCCC3)ccc2C)cc1OC
  A: 1%	B: 21%	C: 2%	D: -4%	E: ?	F: 4.1µM*	G: 1%	H: -6%	I: 7.3µM*
[22] COc1ccc(S(=O)(=O)N2CCCCCC2)cc1NC(=O)Cc1cc(OC)c(OC)c(OC)c1
  A: -1%	B: 0%	C: 0%	D: -5%	E: -4%	F: -24%	G: ·	H: ·	I: ·
[23] CNc1ccc(/C=C2\C=Cc3ccccc32)cc1OC
  A: ·	B: ·	C: ·	D: 7%	E: ·	F: ·	G: ·	H: ·	I: ·
[24] CCN(C)c1ccc(/C=C/c2ccnc3ccccc23)cc1
  A: ·	B: ·	C: ·	D: -2%	E: ·	F: ·	G: ·	H: ·	I: ·
[25] O=C(CCc1nc(-c2ccc(Cl)cc2)no1)NC1CCCCC1
  A: -2%	B: 0%	C: 0%	D: -2%	E: -10%	F: ?	G: ·	H: ·	I: ·
[26] O=C(CCCc1nc(-c2ccc(Cl)cc2)no1)NC1CCCC1
  A: -1%	B: 9%	C: -1%	D: -2%	E: -17%	F: 4.1µM*	G: 2%	H: -4%	I: 5.2µM*
[27] COc1ccc2nc3c(cc2c1)Cn1c-3nc2ccccc2c1=O
  A: ·	B: ·	C: ·	D: -12%	E: 2%	F: ?	G: ·	H: ·	I: ·
[28] Cc1cc[n+](Cc2ccc([N+](=O)[O-])cc2)cc1
  A: 0%	B: -12%	C: 0%	D: 9%	E: -9%	F: ?	G: ·	H: ·	I: ·
[29] Cc1ccc(-c2cc[n+](Cc3ccccc3)cc2)cc1
  A: 0%	B: ?	C: -1%	D: -5%	E: -8%	F: 7.3µM*	G: 1%	H: -2%	I: 9.2µM*
[30] Cc1ccc(S(=O)(=O)N2CCC(n3c(C)nc4cccnc43)CC2)c(C)c1
  A: ·	B: 28%	C: 5%	D: -4%	E: -11%	F: 9.2µM*	G: -2%	H: -9%	I: ·

# Values by screen from the list:
# A549 tox-1, compounds 27 to 30 → 2%, -9%, -8%, -11%
# Nrf2 ARE act, compounds 27 to 30 → ·, 0%, -1%, 5%

# Next results.
# Short forms: A = PTAP TSG101 blk; B = miR-21 reporter; C = Nrf2 ARE act; D = Glioma ERSR ind; E = A549 tox-1; F = Nrf2 inh; G = FLuc enzyme inh; H = A549 tox-2; I = Nrf2 ARE inh
[31] Cc1ccc(-c2cn(-c3ccccc3)c3[n+]2CCCS3)cc1
  A: 0%	B: ?	C: 0%	D: -1%	E: ?	F: 4.6µM*	G: 2%	H: -5%	I: 6.5µM*
[32] COc1ccc(-n2cc(-c3ccc(C)cc3)[n+]3c2SCC3)cc1
  A: -4%	B: ?	C: 2%	D: -9%	E: ?	F: 9.2µM*	G: 2%	H: -7%	I: 5.2µM*
[33] N#Cc1ccc(-c2cn(-c3ccccc3)c3[n+]2CCCS3)cc1
  A: -6%	B: 3%	C: 0%	D: -3%	E: 1%	F: 4%	G: ·	H: ·	I: ·
[34] CC1=C(C(=O)OC2CCCCC2)C(c2cccnc2)n2nnnc2N1 (stereo not given)
  A: -5%	B: -16%	C: -1%	D: -3%	E: -14%	F: 8.2µM*	G: 4%	H: -16%	I: ?
[35] COC(=O)C1=C(C)Nc2nnnn2C1c1cccnc1 (stereo not given)
  A: 1%	B: -4%	C: 0%	D: -5%	E: 12%	F: ·	G: ·	H: ·	I: ·
[36] CCc1ccc(CNC(=O)CSc2c3c(nc4ccc(Cl)cc24)CCCC3)cc1
  A: ·	B: -2%	C: 7%	D: -4%	E: -3%	F: 2%	G: ·	H: ·	I: ·
